Data from publication PMC3352927, “Development and Validation of an Automated High-Throughput System for Zebrafish In Vivo Screenings” (PLoS ONE, 2012).
“Also recorded” adds a separate entry of the source. Structures can show the parent of a compound that is named as a salt. Where two headings read alike, the source gives them in different places.

Tests used:
[1] = tested on: zebrafish embryos; test: Automated angiogenesis assay (ISV formation), Flk1:copGFP embryos treated at 22-26 hpf, read at 48 hpf; format: in vivo; details: for IC50: Danio rerio; for Angiog. inhibition: presence or absence of an anti-angiogenic effect, 0.01-100 µM; for Anti-angiogenic phenotype (ISVs / DLAV): treated at 24 hpf, checked at 48 hpf
[2] = tested on: 48 hpf zebrafish embryos; details: blind screened between 1 and 200 µM; predominant effect
[3] = read-out: IC50 C.V. (complete number of vessels)
[4] = read-out: IC50 T.V. (total number of vessels)

| SMILES | IC50 [1, 3] [µM] | IC50 [1, 4] [µM] | Angiog. inhibition [1] | Anti-angiogenic phenotype (ISVs / DLAV) [1] | Cardiotoxic effect in zebrafish [2] |
| --- | --- | --- | --- | --- | --- |
| CCN(CC)CCNC(=O)c1c(C)[nH]c(/C=C2\C(=O)Nc3ccc(F)cc32)c1C [Sunitinib malate] | 1.7 | 2.6 | Yes | the formation of ISVs was perturbed with defective or total absence of sprouting |  |
| CNC(=O)c1cc(Oc2ccc(NC(=O)Nc3ccc(Cl)c(C(F)(F)F)c3)cc2)ccn1 [Sorafenib Tosylate] | 0.53 | 0.78 | Yes | the formation of ISVs was perturbed with defective or total absence of sprouting; also recorded: lower number of incomplete ISVs |  |
| Cc1nc2n(c(=O)c1CCN1CCC(c3noc4cc(F)ccc34)CC1)CCCC2 [Risperidone] |  |  |  |  | Arrhythmia 2∶1 |
